The list shows a part of the results, in another mix than the full data. Some salts or complexes appear as unconnected parts, following the source record. Calls of active or inactive are those of the source. Calls follow the shape of the dose curve; as a rule, active = well fitted inhibition curve with a large enough effect; inconclusive = small, poorly fitted or top-dose-only effect; inactive = flat fitted curve, though single readings scatter.
biological target: Luciferin 4-monooxygenase (Photuris pensylvanica) (UniProt Q27757); test: Counterscreen for Luciferase (Kinase-Glo TM) Inhibition; conditions: ATP luminescence, 8 min; at 38.3 µM (top of the series) unless noted; also: nearly all actives have a fitted effect of over 60% in size
Procedure, shortened: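 Substrate mix (final 50 mM imidazole pH 7.2, 50 mM KCl, 7 mM MgCl2, 10 uM ATP, 0.01% Tween 20, 0.05% BSA) plus pin-tool compound, then Kinase-Glo detection mix; 8 min ambient, luminescence read.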
% is scaled to controls: 0 for no effect and ±100 for the full control effect.

Structure (SMILES) | activity change, negative = inhibition
OCCSCCO | inactive: -0.102%
COc1ccccc1OP(C)(=O)Nc1c(C)n(C)n(-c2ccccc2)c1=O (stereo not drawn) | inactive: -0.196%
CCc1ccc(OP(C)(=O)Nc2cccnc2)cc1 (stereo not drawn) | inactive: -0.254%
CP(=O)(Oc1ccccc1)N1CCOC1=O (stereo not drawn) | inactive: -3.1%
COc1ccc(OP(C)(=O)Nc2ccc(Br)cc2)cc1 (stereo not drawn) | inactive: -1.81%
CCN(CC)CC(O)COC(=O)C(O)(c1ccccc1)C1CCCCC1 (stereo not drawn) | inactive: -3.04%
N#[O+].[C-]#N.[C-]#N.[C-]#N.[C-]#N.[C-]#N.[Fe+2].[Na+].[Na+] | inactive: 2.26%
C/C1=C2N=C(/C=C3N=C(/C(C)=C4\[N-][C@@](C)([C@H]5N=C1[C@@](C)(CCC(=O)NC[C@H](C)OP(=O)([O-])O[C@@H]1[C@H](O)[C@H](n6cnc7cc(C)c(C)cc76)O[C@@H]1CO)[C@@H]5CC(N)=O)[C@](C)(CC(N)=O)[C@H]4CCC(N)=O)[C@@](C)(CC(N)=O)[C@@H]\3CCC(N)=O)C(C)(C)[C@@H]/2CCC(N)=O.[C-]#N.[Co+3] | inactive: -7.65% [at 17.1 µM]
CCOC(=O)c1ccc(NP(C)(=O)Oc2ccc(Cl)cc2)cc1 (stereo not drawn) | inactive: 0.1%
CP(=O)(OC12CC3CC(CC(C3)C1)C2)OC12CC3CC(CC(C3)C1)C2 | inactive: -4.86%
CP(=O)(Nc1ccccc1Br)Oc1ccccc1 (stereo not drawn) | inactive: -0.819%
COc1ccccc1OP(C)(=O)Nc1ccccc1 (stereo not drawn) | inactive: 8.59%
CP(=S)(Nn1cnnc1)Oc1ccccc1 (stereo not drawn) | inactive: 2.58%
N1=C(c2nnc(-c3nn[nH]n3)nn2)NNN1 | inactive: -9.38% [at 7.66 µM]
CP(=O)(Nc1ccccn1)Oc1ccc(Cl)cc1 (stereo not drawn) | inactive: -4.91%
CCOC(=O)c1ccc(NP(C)(=O)Oc2ccc(OC)cc2)cc1 (stereo not drawn) | inactive: 2%
CCOP(C)(=S)SCC(=O)NC(C)C(=O)O (stereo not drawn) | inactive: 5.4%
Cc1cc(C)cc(OP(C)(=O)Nc2ccc(SC(F)(F)F)cc2)c1 (stereo not drawn) | inactive: 1.14%
CP(=O)(NC(=O)Nc1ccccc1)Oc1ccccc1 (stereo not drawn) | inactive: -2.61%
[Au].[Au].c1ccc([PH+](c2ccccc2)c2ccccc2)cc1.c1ccc([PH+](c2ccccc2)c2ccccc2)cc1.n1n[nH]c(-c2nnn[nH]2)n1 | inactive: -6.29% [at 7.66 µM]
CP(=O)(Oc1ccccc1)OC(c1ccccc1)C(F)(F)F (stereo not drawn) | inactive: -1.91%
Cc1cccc(C)c1OP(C)(=O)Nc1ccc(SC(F)(F)F)cc1 (stereo not drawn) | inactive: 1.68%
CCN(CC)CCCOC(=O)C(O)(c1ccccc1)c1ccccc1 | inactive: -5.23%

— PubChem BioAssay AID1379 (National Center for Advancing Translational Sciences (NCATS), 2008)
